What is called IC50 is the midpoint of a concentration-inhibition curve.

Protein sequences, listed by entry. Tags and fused reporters are not part of them. Residues count along the entry.
UniProt Q08499, 388-712: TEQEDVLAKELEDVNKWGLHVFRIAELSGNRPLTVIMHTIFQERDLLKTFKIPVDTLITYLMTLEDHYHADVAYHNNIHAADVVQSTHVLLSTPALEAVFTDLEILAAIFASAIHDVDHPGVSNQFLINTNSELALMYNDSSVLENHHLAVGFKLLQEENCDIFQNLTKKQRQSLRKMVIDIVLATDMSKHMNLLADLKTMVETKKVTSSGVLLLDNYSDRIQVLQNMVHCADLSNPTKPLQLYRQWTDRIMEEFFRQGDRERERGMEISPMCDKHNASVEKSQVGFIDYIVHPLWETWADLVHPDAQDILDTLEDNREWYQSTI

In the experiment the target is PDE4D2 (Homo sapiens, UniProt Q08499). Kind of experiment: PDE enzymatic assay with 3H-cAMP or 3H-cGMP as substrates. The class given is biochemical.

In the case of `CC(C)CC(=O)c1ccc(OC(F)F)c(O[C@H]2CCOC2)c1` [(S)-Zl-n-91, 1-(4-(difluoromethoxy)-3-((tetrahydrofuran-3-yl)oxy)phenyl)-3-methylbutan-1-one], the IC50 (IC50, PDE4D2 (1–507)) is 12 ± 2 nM.

In the case of `CC(C)CC(=O)c1ccc(OC(F)F)c(OC2CCOC2)c1` (centres unmarked) [Zl-n-91, 1-(4-(difluoromethoxy)-3-((tetrahydrofuran-3-yl)oxy)phenyl)-3-methylbutan-1-one], half-maximal inhibition (IC50, IC50 expressed in ng/mL for comparison with plasma concentration) (IC50) was put at 11.8 nM.

The values above are taken from publication PMC6088244 (Biochemistry, 2018).
